Measured values published in patent publication US11801256B2, “Antidepressant-psilocybin co-treatment to assist psychotherapy” (Universitätsspital Basel, priority 2021, dated 2023).

Key:
HTR2A = experiment: Gene expression in blood (quantitative real-time PCR); format: in vivo, human; conditions: end of the two-week pretreatment period, compared with placebo pretreatment
SLC6A4 = experiment: as above; format: in vivo, human; conditions: end of the two-week pretreatment period, compared with placebo pretreatment

In the case of `CN(C)CCC[C@@]1(c2ccc(F)cc2)OCc2cc(C#N)ccc21` [Escitalopram, escitalopram], the “expression of the HRT2A gene” value (HTR2A) is reported as “did not alter” and the “expression of the SLC6A4 gene” value (SLC6A4) is reported as “did not alter”.
